Assay results from article PMC12751014, “Non-Catalytic Inhibitors of the p38/MK2 Interface: Repurposing Approved Drugs to Target Neuroinflammation in Alzheimer’s Disease” (Journal of Medicinal Chemistry, 2025).
Only a part of the results on these compounds is given; other tests are left out.

By UniProt entry, the sequences of proteins in these tests, tags left out.
UniProt Q16539, whole entry: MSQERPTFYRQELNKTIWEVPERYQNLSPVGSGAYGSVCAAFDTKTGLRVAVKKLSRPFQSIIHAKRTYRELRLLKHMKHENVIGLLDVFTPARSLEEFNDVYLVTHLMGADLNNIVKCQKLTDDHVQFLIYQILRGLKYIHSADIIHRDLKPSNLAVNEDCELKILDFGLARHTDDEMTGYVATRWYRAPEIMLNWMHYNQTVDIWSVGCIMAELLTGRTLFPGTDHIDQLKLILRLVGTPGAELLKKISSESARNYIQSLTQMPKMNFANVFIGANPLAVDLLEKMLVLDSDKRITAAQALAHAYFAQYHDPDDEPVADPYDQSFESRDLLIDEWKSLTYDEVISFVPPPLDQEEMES

Target: p38/MK2 interaction (Homo sapiens, UniProt Q16539)
Assay: TR-FRET ultra-high-throughput screening (uHTS), 1536-well, HEK293T lysate VF-p38α / GST-MK2
Format: binding

For “disodium;iron(4+);nitroxyl anion;pentacyanide”, the “620 nm Fold over Control” value (fluorescence interference readout) was 0.42 and the Pct of control (uHTS TR-FRET signal, Emory Enriched Library) was 7.21 Pct of control.
